In one assay the test system is MDA-MB-435. Description: Cell proliferation inhibition assay (MTT). Type of assay: cell-based. To be noted: Homo sapiens, MDA-MB-435, 72 h, read-out: Proliferative inhibitory activity MDA-MB-435 (IC50 class).
A further assay concerns ZR-75-1. As to the kind of experiment: Cell proliferation inhibition assay (MTT). To be noted: Homo sapiens, ZR-75-1, 72 h, read-out: Proliferation inhibitory activity IC50. Type of assay: cell-based.
The next assay deals with HCT116. Description: Cell proliferation inhibition assay (MTT). Format: cell-based. Conditions: Homo sapiens, HCT-116, 72 h, read-out: Proliferation inhibitory activity IC50.
The test system of another assay is plc/prf/5. Description: Cell proliferation inhibition assay (MTT). Type of assay: cell-based. Conditions: Homo sapiens, PLC-PRF-5, 72 h, read-out: Proliferation inhibitory activity IC50.
The subject of a further assay is H1437. Description: Cell proliferation inhibition assay (MTT). Type of assay: cell-based. To be noted: Homo sapiens, NCI-H1437, 72 h, read-out: Proliferation inhibitory activity IC50.
Another assay deals with A375. As to the kind of experiment: Cell proliferation inhibition assay (MTT). Type of assay: cell-based. To be noted: Homo sapiens, A-375, 72 h, read-out: Proliferation inhibitory activity IC50.
The next assay has as its system A549. As to the kind of experiment: Cell proliferation inhibition assay (MTT). Format: cell-based. To be noted: Homo sapiens, A549, 72 h, read-out: Proliferation inhibitory activity IC50.
The subject of another assay is BT474. Description: Cell proliferation inhibition assay (MTT). Format: cell-based. To be noted: Homo sapiens, BT-474, 72 h, read-out: Proliferation inhibitory activity IC50.
Another assay deals with Hela. Description: Cell proliferation inhibition assay (MTT). Type of assay: cell-based. Conditions: Homo sapiens, 72 h, read-out: Proliferation inhibitory activity IC50.
A further assay concerns Miapaca-2. Description: Cell proliferation inhibition assay (MTT). Format: cell-based. Conditions: Homo sapiens, MIA PaCa-2, 72 h, read-out: Proliferation inhibitory activity IC50.
The next assay concerns MDA-MB-415. Description: Cell proliferation inhibition assay (MTT). Type of assay: cell-based. Conditions: Homo sapiens, MDA-MB-415, 72 h, read-out: Proliferation inhibitory activity IC50.
The next assay has as its system HT29. As to the kind of experiment: Cell proliferation inhibition assay (MTT). Conditions: Homo sapiens, HT-29, 72 h, read-out: Proliferation inhibitory activity IC50. Type of assay: cell-based.
A further assay deals with MV4-11. Description: Cell proliferation inhibition assay (MTT). Type of assay: cell-based. Conditions: Homo sapiens, MV4-11, 72 h, read-out: Proliferation inhibitory activity IC50.
The next assay has as its system DU145. Description: Cell proliferation inhibition assay (MTT). Format: cell-based. Conditions: Homo sapiens, DU-145, 72 h, read-out: Proliferation inhibitory activity IC50.
Another assay relates to OCI-LY10. Description: cells. To be noted: Homo sapiens, OCI-Ly10, 72 h, read-out: Proliferation inhibitory activity IC50.

Bounds are passed on as bounds.

For `Cc1ccc(C(=O)Nc2ccc(CN3CCN(C)CC3)c(C(F)(F)F)c2)cc1C#Cc1nn(C2CCNCC2)c2ncnc(N)c12` [Compound 120], the IC50 in the assay on MDA-MB-435 is 0.1 to 0.5 µM.
Regarding `Cc1ccc(NC(=O)c2cccc(C(F)(F)F)c2)cc1C#Cc1nn([C@H]2CC[C@H](O)CC2)c2ncnc(N)c12` [Compound 100], the IC50 was roughly 10 µM in the assay with ZR-75-1; 2.3 µM in the assay on HCT116; roughly 10 µM in the assay with plc/prf/5; 1.1 µM with H1437; roughly 0.03 µM with A375; greater than 10 µM with A549. Moreover, the IC50 is greater than 10 µM in the assay with BT474; 4.51 µM in the assay with Hela; less than 0.6 µM with Miapaca-2; roughly 10 µM in the assay with MDA-MB-415; 0.03 µM in the assay on HT29; 0.079 µM with MV4-11. The IC50 with DU145 was determined as 0.0292 µM.
Turning to `CCn1nc(C#Cc2cc(C(=O)Nc3ccc(CN4CCN(C)CC4)c(C(F)(F)F)c3)ccc2C)c2c(N)ncnc21` [Compound 3], the IC50 with OCI-LY10 was 2.17 µM.

The record behind these values is patent US10266537B2, “3-acetylenyl-pyrazole-pyrimidine derivative, and preparation method therefor and uses thereof” (Si Chuan University, priority 2015, dated 2019).
